Consider four compounds from article PMC11557314, “Structure–function relationship of dynorphin B variants using naturally occurring amino acid substitutions” (Frontiers in Pharmacology, 2024).

Chains of the proteins cited; added tags and fusions are not shown. Lines headed by an entry give the natural chain unless they say otherwise; changes in a name come on top.
UniProt P41145: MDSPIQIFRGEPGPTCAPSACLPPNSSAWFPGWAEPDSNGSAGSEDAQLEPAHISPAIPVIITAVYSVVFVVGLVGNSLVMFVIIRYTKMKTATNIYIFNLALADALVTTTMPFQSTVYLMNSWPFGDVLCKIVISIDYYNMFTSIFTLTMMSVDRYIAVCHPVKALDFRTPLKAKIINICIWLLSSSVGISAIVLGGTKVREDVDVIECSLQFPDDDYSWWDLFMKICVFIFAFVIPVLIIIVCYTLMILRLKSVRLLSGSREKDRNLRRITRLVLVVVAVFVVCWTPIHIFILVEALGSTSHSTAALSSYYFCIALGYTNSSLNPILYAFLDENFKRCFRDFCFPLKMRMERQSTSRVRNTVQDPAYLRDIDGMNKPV
UniProt P35372, whole entry: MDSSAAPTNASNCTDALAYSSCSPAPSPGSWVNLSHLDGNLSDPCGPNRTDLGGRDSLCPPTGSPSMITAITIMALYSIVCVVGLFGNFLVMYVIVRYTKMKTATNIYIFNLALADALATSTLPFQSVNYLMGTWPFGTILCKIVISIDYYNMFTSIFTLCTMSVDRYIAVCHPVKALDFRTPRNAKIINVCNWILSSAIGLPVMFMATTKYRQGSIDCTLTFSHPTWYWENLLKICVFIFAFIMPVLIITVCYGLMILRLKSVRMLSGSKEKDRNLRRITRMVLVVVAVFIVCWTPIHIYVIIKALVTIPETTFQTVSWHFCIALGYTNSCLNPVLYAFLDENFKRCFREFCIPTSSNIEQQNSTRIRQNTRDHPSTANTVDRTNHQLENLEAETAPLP
UniProt P41143, whole entry: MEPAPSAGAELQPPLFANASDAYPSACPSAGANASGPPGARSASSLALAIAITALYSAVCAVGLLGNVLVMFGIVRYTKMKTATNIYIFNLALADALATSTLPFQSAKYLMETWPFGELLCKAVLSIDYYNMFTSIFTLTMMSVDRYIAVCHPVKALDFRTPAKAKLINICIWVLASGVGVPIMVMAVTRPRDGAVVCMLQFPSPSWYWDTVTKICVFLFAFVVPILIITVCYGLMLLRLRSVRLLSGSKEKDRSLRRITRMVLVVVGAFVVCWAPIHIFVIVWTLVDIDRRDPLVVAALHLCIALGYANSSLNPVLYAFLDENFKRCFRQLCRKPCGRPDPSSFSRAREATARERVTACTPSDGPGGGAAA

Assay [1] concerns the target T1, hKOPr (Homo sapiens, UniProt P41145). The experiment in a line: cell-based. The following applies: HEK293, read-out: β-Arrestin recruitment, efficacy at hKOPr Emax. (In general: Arrestin recruitment assays detect the binding of arrestin to an activated receptor.)
The target of assay [2] is T1, hKOPr. Briefly: biochemical.
In assay [3] the target is T2, hMOPr (Homo sapiens, UniProt P35372). The experiment in a line: Competitive radio binding assay with [3H]-DAMGO on hMOPr-CHO cell membranes.
Assay [4] deals with hDOPr (Homo sapiens, UniProt P41143). The experiment in a line: Competitive radio binding assay with [3H]-diprenorphine on hDOPr-CHO cell membranes. The note with it: read-out: Ki hDOPr; [3H]-diprenorphine 1 nM, 60 min 25°C; mean ± SEM.
Assay [5] has as its target T1, hKOPr. Briefly: biochemical. In kind it is binding.
The target of assay [6] is T2, hMOPr. Briefly: biochemical.
Setting [7] is: read-out: Potency at hKOPr EC50.
Setting [8] is: read-out: Ki hMOPr, [3H]-DAMGO 1 nM, 60 min 25°C, mean ± SEM.

Read-outs that look alike come from different tables or passages of the source. Where no end group is shown, it is not given here.

Consider `CC[C@H](C)[C@H](NC(=O)[C@H](CCCNC(=N)N)NC(=O)[C@H](CCCNC(=N)N)NC(=O)[C@H](CC(C)C)NC(=O)[C@H](Cc1ccccc1)NC(=O)CNC(=O)CNC(=O)[C@@H](N)Cc1ccc(O)cc1)C(=O)N[C@@H](CCCNC(=N)N)C(=O)N1CCC[C@H]1C(=O)N[C@@H](CCCCN)C(=O)N[C@@H](CC(C)C)C(=O)N[C@@H](CCCCN)C(=O)N[C@@H](Cc1c[nH]c2ccccc12)C(=O)N[C@@H](CC(=O)O)C(=O)N[C@@H](CC(N)=O)C(=O)N[C@@H](CCC(N)=O)C(=O)O` [DynA_WT, dynorphin A, reference compound], for which the Emax in assay [1] and in assay [2] (read-out: Efficacy at hKOPr Emax) was 100% each time.
Turning to YGGFLRRAFKVVT [DynB_Q8A], the EC50 in assay [2] (setting [7]) was determined as 3.67 ± 0.52 nM. Moreover, the Ki in assay [3] (setting [8]) was 21.9 ± 5.9 nM; in assay [4], 230 ± 30.3 nM; in assay [5] (read-out: Ki hKOPr) it was 1.56 nM. The “Selectivity DOPr/KOPr” value in assay [5] came out at 147. In addition, in assay [5], the “Selectivity MOPr/KOPr” value is recorded as 14.
With `CC(C)C[C@H](NC(=O)[C@H](Cc1ccccc1)NC(=O)CNC(=O)CNC(=O)[C@@H](N)Cc1ccc(O)cc1)C(=O)N[C@@H](CCCNC(=N)N)C(=O)N[C@@H](CCCNC(=N)N)C(=O)N[C@@H](CCC(N)=O)C(=O)N[C@@H](Cc1ccccc1)C(=O)N[C@@H](CCCCN)C(=O)N[C@H](C(=O)N[C@H](C(=O)N[C@H](C(=O)O)[C@@H](C)O)C(C)C)C(C)C` [DynB_WT, dynorphin B], the EC50 in assay [2] was determined as 5.1 ± 0.61 nM; in assay [6], 31.4 ± 10 nM. The Ki in assay [3] worked out at 11.6 ± 2.6 nM; in assay [5] it was 0.72 nM. In assay [6], the “hMOPr % stim, stimulation of [35S]GTPγS binding” value was 103 ± 0.0%.
Take YGGFLRRQFAVVT [DynB_K10 A]: the EC50 in assay [2] (setting [7]) amounted to 9.79 ± 0.92 nM. In addition, the Ki was determined as 12.6 ± 3.5 nM in assay [3] (setting [8]), 103 ± 14.2 nM in assay [4] and 1.25 nM in assay [5] (read-out: Ki hKOPr). Further, the “Selectivity DOPr/KOPr” value in assay [5] came to 82. Also, the “Selectivity MOPr/KOPr” value in assay [5] is on record as 10.

One may read the Emax as the greatest response seen or fitted, relative to the assay's reference. In general, EC50 refers to the concentration needed to bring the measured effect to its halfway point. By Ki is commonly meant the dissociation constant of the complex between target and ligand, obtained from inhibition or displacement.
